# Binding of CDR-mutated scFvs to a peptide of the spike HR2 region

Reference: Engelhart et al. 2022, doi:10.1038/s41597-022-01779-4. File: FLAb, binding data.

Antigen: PDVDLGDISGINAS, a 14-residue peptide of the SARS-CoV-2 spike HR2 region.

Parent scFv Ab-91: VL joined to VH by three GGGGS repeats. Changes lie in the heavy chain CDRs alone.
VL: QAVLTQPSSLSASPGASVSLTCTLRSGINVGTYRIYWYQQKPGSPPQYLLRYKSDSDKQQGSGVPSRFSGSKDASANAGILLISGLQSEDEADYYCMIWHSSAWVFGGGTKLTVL
VH: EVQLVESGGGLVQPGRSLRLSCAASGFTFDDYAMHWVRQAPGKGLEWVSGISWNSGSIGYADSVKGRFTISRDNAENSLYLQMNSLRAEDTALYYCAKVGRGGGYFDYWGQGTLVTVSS

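The parent was found by panning a naive human phage display library on the peptide. The library (AAYL51) carries one to three amino acid substitutions per variant, with no insertions or deletions. Affinity was read by AlphaSeq, a pooled yeast mating assay with surface-displayed partners. After mating in shaken culture at 30 °C for 16 h, diploids were selected and their barcode pairs sequenced. A regression on co-assayed BCL2-family reference pairs converts the normalised counts of each replicate to an apparent Kd. Mating was done three times.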

Changes read parent residue, position, new residue, counted from the first residue of the VH shown. This list gathers variants with a substitution at G104 (VH, numbered from residue 1). Affinities are written as log10 Kd with Kd in nM; a lower number is a better binder. Averages over replicates are reported, and they cover detected replicates only. A pair that was not seen in any replicate is written "nd"; this usually means weak binding, but a binder can also be missed. In this assay the parent's reference entry averaged 1.86; its copy inside this library read 0.88. Three control strains display no target. For library AAYL51, 21% of the pairings with them gave a signal, with a median of 4.54 and one signal in twenty below 3.26, so weak values seen in few replicates may be background. Also given: how often the same scFv was detected with the empty control strains.

For F29N S52M G104L, the assay gave 4.81 (1 of 3 replicates; controls 6 of 9). The variant D30A V99Y G104P showed 0.73 (3 of 3 replicates; controls 2 of 9). The variant W53G S57Q G104F showed nd (0 of 3 replicates; controls 0 of 9). With D31T G100K G104I the result was 5.43 (1 of 3 replicates; controls 3 of 9). With G59M G103L G104F the result was nd (0 of 3 replicates; controls 0 of 9). The variant F29K R101Y G104M showed 4.76 (3 of 3 replicates; controls 4 of 9). The variant S57L G102D G104L showed nd (0 of 3 replicates; controls 1 of 9). With G50F G104R Y105C the result was nd (0 of 3 replicates; controls 0 of 9).

For Y32V G50Q G104Y, the assay gave 4.72 (1 of 3 replicates; controls 0 of 9). The variant Y60M G102A G104V showed 3.56 (3 of 3 replicates; controls 0 of 9). The variant Y32G G104R F106P gave nd (0 of 3 replicates; controls 0 of 9). The variant G26V W53D G104A gave nd (0 of 3 replicates; controls 1 of 9). With G104Q D107I the result was nd (0 of 3 replicates; controls 0 of 9). For S57D G104E Y105M, the assay gave 4.21 (1 of 3 replicates; controls 0 of 9). With W53S K65Q G104P the result was 4.92 (3 of 3 replicates; controls 4 of 9). The variant G50C G104S D107T gave nd (0 of 3 replicates; controls 0 of 9).

The variant M34L S63H G104D gave nd (0 of 3 replicates; controls 1 of 9). With S52G V64Y G104Y the result was nd (0 of 3 replicates; controls 2 of 9). For I51M G56C G104Y, the assay gave 4.83 (2 of 3 replicates; controls 4 of 9). The variant V99F G104Y gave 3.63 (2 of 3 replicates; controls 2 of 9). The variant I51N R101W G104T showed 4.65 (1 of 3 replicates; controls 0 of 9). With G104M the result was nd (0 of 3 replicates; controls 1 of 9). With S63C R101A G104W the result was 1.76 (3 of 3 replicates; controls 3 of 9). For G103L G104N F106L, the assay gave nd (0 of 3 replicates; controls 0 of 9).

With D31H G50V G104I the result was 5.18 (1 of 3 replicates; controls 2 of 9). The variant G104H Y105R Y108C showed 5.42 (1 of 3 replicates; controls 3 of 9). For G100V G104V F106D, the assay gave nd (0 of 3 replicates; controls 1 of 9). For G26M Y60M G104C, the assay gave nd (0 of 3 replicates; controls 2 of 9). With S63D G104V the result was nd (0 of 3 replicates; controls 0 of 9). The variant W53H G104T Y108Q showed 1.71 (3 of 3 replicates; controls 3 of 9). For D31V A61W G104A, the assay gave 4.56 (1 of 3 replicates; controls 4 of 9). The variant G104K Y108E showed 5.43 (2 of 3 replicates; controls 2 of 9).

The variant I58A G104W D107T gave nd (0 of 3 replicates; controls 1 of 9). With D31C G103P G104P the result was 2.84 (3 of 3 replicates; controls 4 of 9). The variant H35R I58T G104N showed nd (0 of 3 replicates; controls 0 of 9). The variant A33Y G104E Y105F gave 4.24 (1 of 3 replicates; controls 4 of 9). The variant S63Y V99P G104A showed nd (0 of 3 replicates; controls 1 of 9). The variant V99F G100R G104Y showed nd (0 of 3 replicates; controls 2 of 9). The variant D31G V64R G104C showed nd (0 of 3 replicates; controls 1 of 9). With M34K H35E G104W the result was nd (0 of 3 replicates; controls 0 of 9).

The opening 2 entries, copied out:

changes	mean log10 Kd (nM)	replicates with signal	control signals
F29N S52M G104L	4.81	1 of 3	6 of 9
D30A V99Y G104P	0.73	3 of 3	2 of 9